In test [1] the target is T1, ALK tyrosine kinase receptor (Homo sapiens, UniProt Q9UM73). Nature of the test: Inhibition of human ALK expressed in baculovirus using recombinant GST PLC-gamma as substrate assessed as phosphorylation of the substrate after 15 mins by TRF assay.
Test [2] concerns the target T2, Focal adhesion kinase 1 (Homo sapiens, UniProt Q05397). Kind of test: Inhibition of human FAK expressed in baculovirus after 30 mins using biotinyl-amino-hexanoyl-EQEDEPEGDYFEWLE-amide as substrate by TRF assay.
Test [3] concerns the target T1, ALK tyrosine kinase receptor. Nature of the test: Inhibition of NPM-ALK phosphorylation in human SUP-M2 cells after 2 to 3 hrs by ELISA. Format: cell-based. For orientation: In an ELISA, binding on a coated surface is turned into a signal by an enzyme label.
Test [4] concerns the target ALK tyrosine kinase receptor (Homo sapiens, UniProt Q9UM73, F1174L). Nature of the test: Binding affinity to human ALK (1088 to 1409 residues) F1174L mutant expressed in mammalian system by KINOMEscan assay.
The target of test [5] is T2, Focal adhesion kinase 1. Kind of test: Inhibition of FAK phosphorylation in human HCC827 cells after 2 to […] by immunoblot analysis. The class given is cell-based. A general note: In western blotting, separated proteins are transferred to a membrane and probed.
Test [6] addresses ALK tyrosine kinase receptor (Homo sapiens, UniProt Q9UM73, C1156Y). Kind of test: Binding affinity to human ALK (1088 to 1409 residues) C1156Y mutant expressed in mammalian system by KINOMEscan assay.
Test [7] has as its target T1, ALK tyrosine kinase receptor. Kind of test: Inhibition of EML4-ALK tyrosine phosphorylation in human NCI-H3122 cells. Format: cell-based.
Test [8] concerns the target ALK tyrosine kinase receptor (Homo sapiens, UniProt Q9UM73, L1196M). Kind of test: Binding affinity to human ALK (1088 to 1409 residues) L1196M mutant expressed in mammalian system by KINOMEscan assay.
For test [9], the target named is T1, ALK tyrosine kinase receptor. Kind of test: Inhibition of EML4-ALK tyrosine phosphorylation in human NCI-H2228 cells. Format: cell-based.
For test [10] the target is unchanged. Nature of the test: Binding affinity to human ALK (1088 to 1409 residues) expressed in mammalian system by KINOMEscan assay.

The chains behind the UniProt entries cited, without tags or fusion partners. Residues count along the entry.
UniProt Q9UM73, 19-1620 limits assumed: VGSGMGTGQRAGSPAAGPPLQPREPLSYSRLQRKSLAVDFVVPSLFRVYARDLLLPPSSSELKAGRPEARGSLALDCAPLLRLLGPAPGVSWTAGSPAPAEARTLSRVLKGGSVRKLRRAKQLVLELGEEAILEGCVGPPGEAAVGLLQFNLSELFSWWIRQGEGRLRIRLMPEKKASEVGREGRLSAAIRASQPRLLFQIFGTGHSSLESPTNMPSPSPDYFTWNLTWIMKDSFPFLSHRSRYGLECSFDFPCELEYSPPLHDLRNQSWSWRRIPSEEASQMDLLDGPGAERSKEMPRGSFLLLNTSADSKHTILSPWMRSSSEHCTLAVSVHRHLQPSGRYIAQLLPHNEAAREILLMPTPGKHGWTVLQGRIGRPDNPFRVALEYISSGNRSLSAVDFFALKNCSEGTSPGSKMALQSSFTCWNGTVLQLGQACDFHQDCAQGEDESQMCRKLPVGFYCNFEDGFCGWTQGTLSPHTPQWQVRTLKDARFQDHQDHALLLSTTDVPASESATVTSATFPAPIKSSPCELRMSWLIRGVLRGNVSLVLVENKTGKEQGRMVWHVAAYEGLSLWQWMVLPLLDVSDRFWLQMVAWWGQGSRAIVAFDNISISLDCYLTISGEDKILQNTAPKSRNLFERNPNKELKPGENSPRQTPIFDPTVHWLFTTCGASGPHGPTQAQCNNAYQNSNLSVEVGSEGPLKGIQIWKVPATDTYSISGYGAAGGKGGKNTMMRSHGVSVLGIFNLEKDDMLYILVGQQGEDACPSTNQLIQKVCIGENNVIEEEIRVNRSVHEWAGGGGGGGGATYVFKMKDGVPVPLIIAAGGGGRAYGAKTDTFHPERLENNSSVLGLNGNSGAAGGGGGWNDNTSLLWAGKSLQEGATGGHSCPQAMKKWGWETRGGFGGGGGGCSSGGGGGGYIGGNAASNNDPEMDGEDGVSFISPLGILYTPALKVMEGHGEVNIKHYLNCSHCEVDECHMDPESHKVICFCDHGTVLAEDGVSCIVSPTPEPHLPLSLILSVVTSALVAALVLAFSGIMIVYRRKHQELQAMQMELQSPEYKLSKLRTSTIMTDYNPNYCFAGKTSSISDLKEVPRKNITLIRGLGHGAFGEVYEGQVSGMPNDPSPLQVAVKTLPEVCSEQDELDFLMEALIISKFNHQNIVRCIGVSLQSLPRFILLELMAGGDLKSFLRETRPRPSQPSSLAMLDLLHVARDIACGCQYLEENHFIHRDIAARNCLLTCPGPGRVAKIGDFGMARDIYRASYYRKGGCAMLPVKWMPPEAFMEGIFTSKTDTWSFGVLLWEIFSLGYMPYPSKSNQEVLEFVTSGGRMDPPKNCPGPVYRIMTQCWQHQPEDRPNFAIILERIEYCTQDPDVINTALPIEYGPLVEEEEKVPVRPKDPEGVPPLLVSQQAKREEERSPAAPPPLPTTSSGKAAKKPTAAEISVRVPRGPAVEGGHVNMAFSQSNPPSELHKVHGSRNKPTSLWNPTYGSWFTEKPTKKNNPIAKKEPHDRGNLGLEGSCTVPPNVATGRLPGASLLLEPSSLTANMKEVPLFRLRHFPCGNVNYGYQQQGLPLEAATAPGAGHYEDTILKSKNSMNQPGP
UniProt Q9UM73, 19-1620 F1174L limits assumed: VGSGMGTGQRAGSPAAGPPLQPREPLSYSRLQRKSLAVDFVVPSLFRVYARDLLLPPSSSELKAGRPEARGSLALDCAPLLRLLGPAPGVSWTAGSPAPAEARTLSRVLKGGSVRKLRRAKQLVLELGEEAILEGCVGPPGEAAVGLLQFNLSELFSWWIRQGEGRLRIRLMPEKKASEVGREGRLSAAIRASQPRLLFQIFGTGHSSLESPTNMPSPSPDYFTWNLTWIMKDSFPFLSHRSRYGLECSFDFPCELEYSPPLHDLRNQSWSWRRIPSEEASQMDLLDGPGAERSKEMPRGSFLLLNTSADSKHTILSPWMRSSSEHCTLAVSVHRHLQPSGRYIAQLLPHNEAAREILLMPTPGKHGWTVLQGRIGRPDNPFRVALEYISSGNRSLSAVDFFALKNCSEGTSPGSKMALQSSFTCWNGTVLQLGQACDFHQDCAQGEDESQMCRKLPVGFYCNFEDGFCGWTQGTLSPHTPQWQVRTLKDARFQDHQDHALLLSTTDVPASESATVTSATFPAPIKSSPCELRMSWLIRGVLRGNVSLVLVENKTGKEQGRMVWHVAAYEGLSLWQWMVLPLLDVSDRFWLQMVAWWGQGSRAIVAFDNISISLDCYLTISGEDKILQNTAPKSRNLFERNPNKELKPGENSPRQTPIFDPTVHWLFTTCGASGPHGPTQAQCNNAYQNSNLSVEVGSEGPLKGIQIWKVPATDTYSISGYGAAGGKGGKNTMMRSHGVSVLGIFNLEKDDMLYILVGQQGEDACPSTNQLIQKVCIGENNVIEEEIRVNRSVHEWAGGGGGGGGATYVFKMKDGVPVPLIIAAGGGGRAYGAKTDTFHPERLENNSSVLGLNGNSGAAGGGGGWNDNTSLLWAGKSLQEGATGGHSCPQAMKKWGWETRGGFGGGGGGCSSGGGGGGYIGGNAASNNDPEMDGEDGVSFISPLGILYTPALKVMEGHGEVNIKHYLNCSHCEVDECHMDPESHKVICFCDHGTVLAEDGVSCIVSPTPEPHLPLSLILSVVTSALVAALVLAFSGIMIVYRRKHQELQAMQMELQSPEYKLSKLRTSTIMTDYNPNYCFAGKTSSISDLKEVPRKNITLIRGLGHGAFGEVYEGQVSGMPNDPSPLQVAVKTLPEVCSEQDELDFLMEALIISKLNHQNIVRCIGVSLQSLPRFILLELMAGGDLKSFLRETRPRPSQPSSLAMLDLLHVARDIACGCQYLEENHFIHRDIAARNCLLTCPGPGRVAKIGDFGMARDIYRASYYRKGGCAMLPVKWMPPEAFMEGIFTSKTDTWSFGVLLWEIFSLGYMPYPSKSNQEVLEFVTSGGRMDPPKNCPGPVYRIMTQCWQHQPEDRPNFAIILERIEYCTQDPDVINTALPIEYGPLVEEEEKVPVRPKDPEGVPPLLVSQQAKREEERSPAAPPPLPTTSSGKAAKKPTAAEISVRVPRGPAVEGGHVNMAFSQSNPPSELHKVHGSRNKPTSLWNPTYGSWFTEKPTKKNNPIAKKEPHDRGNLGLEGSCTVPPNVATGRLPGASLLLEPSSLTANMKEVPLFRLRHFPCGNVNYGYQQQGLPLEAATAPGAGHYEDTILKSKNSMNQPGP
UniProt Q9UM73, 19-1620 C1156Y limits assumed: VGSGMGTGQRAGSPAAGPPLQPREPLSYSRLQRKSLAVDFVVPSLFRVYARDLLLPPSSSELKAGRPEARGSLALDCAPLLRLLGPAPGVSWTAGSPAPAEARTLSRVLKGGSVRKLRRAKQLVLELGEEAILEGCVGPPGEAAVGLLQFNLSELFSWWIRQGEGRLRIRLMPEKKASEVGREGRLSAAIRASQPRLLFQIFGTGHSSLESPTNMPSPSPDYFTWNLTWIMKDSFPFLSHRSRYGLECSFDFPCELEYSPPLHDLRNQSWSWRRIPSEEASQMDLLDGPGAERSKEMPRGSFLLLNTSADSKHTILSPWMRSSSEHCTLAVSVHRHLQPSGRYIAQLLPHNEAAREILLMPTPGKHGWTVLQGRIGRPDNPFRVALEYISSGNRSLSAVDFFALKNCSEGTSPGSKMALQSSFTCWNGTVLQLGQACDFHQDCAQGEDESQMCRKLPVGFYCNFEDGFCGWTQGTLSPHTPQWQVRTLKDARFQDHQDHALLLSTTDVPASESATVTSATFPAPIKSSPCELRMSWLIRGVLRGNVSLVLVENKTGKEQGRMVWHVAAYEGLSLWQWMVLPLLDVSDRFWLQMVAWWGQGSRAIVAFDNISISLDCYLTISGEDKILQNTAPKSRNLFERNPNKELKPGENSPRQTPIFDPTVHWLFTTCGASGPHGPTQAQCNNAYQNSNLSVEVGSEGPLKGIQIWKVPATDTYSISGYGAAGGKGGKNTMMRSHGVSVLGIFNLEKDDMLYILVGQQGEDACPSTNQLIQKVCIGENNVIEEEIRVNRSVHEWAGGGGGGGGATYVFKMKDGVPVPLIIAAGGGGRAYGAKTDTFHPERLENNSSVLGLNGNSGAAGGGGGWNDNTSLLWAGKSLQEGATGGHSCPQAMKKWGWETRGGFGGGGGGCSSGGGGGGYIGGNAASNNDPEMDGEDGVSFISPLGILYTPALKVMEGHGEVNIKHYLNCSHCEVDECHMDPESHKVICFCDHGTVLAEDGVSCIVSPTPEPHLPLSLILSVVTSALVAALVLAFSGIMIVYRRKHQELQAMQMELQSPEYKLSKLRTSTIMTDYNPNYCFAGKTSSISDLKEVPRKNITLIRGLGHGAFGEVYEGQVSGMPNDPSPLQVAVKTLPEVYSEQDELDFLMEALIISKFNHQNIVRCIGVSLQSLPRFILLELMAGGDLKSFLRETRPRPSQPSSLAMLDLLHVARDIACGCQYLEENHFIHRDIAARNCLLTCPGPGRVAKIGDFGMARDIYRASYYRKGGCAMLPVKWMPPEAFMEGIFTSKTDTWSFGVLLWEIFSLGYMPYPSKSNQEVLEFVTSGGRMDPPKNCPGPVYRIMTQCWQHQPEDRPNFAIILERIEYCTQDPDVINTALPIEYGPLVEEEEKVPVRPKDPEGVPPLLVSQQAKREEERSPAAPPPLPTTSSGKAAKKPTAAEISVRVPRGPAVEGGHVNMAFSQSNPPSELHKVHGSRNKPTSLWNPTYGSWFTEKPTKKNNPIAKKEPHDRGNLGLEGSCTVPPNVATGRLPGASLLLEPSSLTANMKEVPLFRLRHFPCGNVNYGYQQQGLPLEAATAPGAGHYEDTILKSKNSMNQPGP
UniProt Q9UM73, 19-1620 L1196M limits assumed: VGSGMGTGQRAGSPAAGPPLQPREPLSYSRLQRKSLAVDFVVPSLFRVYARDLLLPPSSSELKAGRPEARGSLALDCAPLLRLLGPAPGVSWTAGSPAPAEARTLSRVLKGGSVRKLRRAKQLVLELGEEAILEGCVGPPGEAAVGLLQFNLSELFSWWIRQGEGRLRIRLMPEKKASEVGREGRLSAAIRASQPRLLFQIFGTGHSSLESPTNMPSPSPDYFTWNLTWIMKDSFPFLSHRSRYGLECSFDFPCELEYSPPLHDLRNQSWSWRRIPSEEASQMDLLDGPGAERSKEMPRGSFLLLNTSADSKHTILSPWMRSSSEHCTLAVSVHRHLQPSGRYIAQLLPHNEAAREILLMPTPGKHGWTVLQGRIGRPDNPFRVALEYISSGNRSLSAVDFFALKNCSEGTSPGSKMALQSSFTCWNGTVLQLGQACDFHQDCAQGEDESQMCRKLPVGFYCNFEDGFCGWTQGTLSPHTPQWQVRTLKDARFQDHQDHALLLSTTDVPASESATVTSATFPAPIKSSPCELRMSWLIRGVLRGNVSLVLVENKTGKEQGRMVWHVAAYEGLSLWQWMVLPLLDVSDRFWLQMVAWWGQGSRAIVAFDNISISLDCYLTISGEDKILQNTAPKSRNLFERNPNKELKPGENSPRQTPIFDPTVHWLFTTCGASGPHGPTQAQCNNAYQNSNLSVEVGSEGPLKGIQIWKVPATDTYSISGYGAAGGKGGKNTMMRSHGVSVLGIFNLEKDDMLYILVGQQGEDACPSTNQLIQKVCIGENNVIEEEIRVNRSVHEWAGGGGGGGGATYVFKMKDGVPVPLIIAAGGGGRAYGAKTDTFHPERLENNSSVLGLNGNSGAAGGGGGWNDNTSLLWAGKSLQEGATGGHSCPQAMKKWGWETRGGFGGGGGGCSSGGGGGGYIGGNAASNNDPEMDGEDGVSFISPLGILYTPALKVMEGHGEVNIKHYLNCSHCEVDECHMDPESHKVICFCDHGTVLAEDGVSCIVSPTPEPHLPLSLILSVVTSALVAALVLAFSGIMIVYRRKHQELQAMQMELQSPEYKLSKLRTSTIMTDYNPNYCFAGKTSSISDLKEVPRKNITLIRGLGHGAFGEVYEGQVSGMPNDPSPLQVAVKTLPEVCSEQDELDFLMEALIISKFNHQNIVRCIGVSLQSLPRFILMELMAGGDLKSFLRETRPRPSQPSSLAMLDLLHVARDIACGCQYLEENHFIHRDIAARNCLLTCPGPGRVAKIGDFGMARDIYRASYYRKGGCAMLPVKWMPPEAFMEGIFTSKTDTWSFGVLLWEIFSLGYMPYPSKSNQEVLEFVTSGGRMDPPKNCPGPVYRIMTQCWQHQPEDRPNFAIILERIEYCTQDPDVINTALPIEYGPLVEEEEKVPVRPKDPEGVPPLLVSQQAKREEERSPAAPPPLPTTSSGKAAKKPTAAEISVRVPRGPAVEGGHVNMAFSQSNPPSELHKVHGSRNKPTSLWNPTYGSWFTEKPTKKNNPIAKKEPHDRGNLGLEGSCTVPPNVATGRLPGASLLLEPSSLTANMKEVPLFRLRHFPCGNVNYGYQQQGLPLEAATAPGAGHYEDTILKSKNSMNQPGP

pIC50, pKd: −log10 of the molar value.

Consider `CNC(=O)c1ccccc1Nc1nc(Nc2ccc3c(c2OC)CCC[C@@H](N2CCN(CCO)CC2)C3)ncc1Cl`, for which the negative logarithm of the IC50 (pIC50) (usually −log10 of the IC50, conventionally taken in molar units) is 8.24 in [1], 9.00 on Focal adhesion kinase 1 [2] and 7.30 in test [3].
Turning to `CNC(=O)c1ccccc1Nc1nc(Nc2ccc3c(c2OC)CCC[C@H](N2CCN(CCO)CC2)C3)ncc1Cl` [CEP-37440], the pIC50 in test [1] was 8.51; against Focal adhesion kinase 1 [2] it was 8.70; against Focal adhesion kinase 1 [5], 6.45 to 7.10; in test [7], 7.07; in test [3], 7.66; in test [9], 6.76. The pKd – broadly, the Kd on a negative log10 scale, so that one unit is a factor of ten – is 8.96 in test [4], 8.80 in test [6], 8.48 in test [8] and 8.44 to 8.64 in [10].
For the molecule `CNC(=O)c1ccccc1Nc1nc(Nc2ccc3c(c2OC)CCCC(N2CCN(CCO)CC2)C3)ncc1Cl` (racemic), the results for the pIC50 (in [1]; on Focal adhesion kinase 1 [2]; in test [3]) were 8.47, 8.51 and 7.40, respectively.

The values above are taken from ChEMBL document CHEMBL3856231 (J Med Chem, 2016).
